Source: ChEMBL document CHEMBL3886143, “(Hetero)aryl cyclopropylamine compounds as LSD1 inhibitors” (2016)

Chains of the proteins cited; added tags and fusions are not shown.
UniProt P27338, whole entry: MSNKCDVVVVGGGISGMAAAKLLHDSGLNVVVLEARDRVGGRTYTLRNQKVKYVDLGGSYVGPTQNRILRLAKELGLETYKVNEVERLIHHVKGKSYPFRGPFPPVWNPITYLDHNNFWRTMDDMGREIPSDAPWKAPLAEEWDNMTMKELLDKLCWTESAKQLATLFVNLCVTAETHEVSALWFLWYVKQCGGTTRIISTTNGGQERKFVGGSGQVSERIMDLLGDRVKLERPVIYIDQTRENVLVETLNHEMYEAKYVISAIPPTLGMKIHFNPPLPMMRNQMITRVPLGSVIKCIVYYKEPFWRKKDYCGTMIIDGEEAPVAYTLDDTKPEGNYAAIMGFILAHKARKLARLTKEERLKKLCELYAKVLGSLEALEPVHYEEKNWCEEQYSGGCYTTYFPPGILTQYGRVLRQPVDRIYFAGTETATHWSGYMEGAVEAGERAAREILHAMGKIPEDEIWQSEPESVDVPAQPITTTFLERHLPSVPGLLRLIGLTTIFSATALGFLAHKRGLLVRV

Biological target: Amine oxidase [flavin-containing] B (Homo sapiens, UniProt P27338)
Assay: Fluorescence-Based (Inhibitor)-Screening Assay: In order to monitor MAO enzymatic activities and/or their inhibition rate by inhibitor(s) of interest, a fluorescence-based (inhibitor)-screening assay was set up. 3-(2-Aminophenyl)-3-oxopropanamine (kynuramine dihydrobromide, Sigma Aldrich), a non fluorescent compound was chosen as a substrate. Kynuramine is a non-specific substrate for both MAO-A …

Compound: N[C@H]1CC[C@H](N[C@@H]2C[C@H]2c2ccccc2)CC1
- Ki: > 40 µM
